The source of these data is US20220133733A1, “BICYCLIC PEPTIDE LIGANDS SPECIFIC FOR CD38” (BicycleRD Limited, priority 2019, published 2022).

Protein sequences, listed by entry. Tags and fused reporters are not part of them.
UniProt P28907, whole entry: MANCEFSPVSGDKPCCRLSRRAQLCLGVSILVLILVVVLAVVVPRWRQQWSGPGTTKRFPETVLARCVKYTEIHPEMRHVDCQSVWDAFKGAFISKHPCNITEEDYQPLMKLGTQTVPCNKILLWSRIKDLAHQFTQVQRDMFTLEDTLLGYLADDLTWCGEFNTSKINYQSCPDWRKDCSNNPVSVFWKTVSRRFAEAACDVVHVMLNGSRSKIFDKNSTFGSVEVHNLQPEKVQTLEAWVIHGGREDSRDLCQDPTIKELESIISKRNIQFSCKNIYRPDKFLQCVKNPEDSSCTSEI

In this assay the target is human CD38 (Homo sapiens, UniProt P28907). The experiment in a line: CD38 competition binding assay (fluorescence polarisation). As to conditions: Table 1; peptide ligands, molecular scaffold TBMB. On the procedure:
1. CD38 Competition Binding Assay
Affinity of the peptides of the invention for human CD38 (Ki) was determined using a fluorescence polarisation assay, using the method reported by Lea et al (Expert Opin Drug Discov. 2011 6(1): 17-3) and using the following fluorescently labelled peptides ACTPCADFPIWGCA-Sar6-K(Fl) ((SEQ ID NO: 93)-Sar6-K(Fl)) for TBMB derivatives where Fl is a fluorescein molecule.

Substance “Ac-(SEQ ID NO: 3)-A-Sar6-(PG) [66-03-00-N009]” registered a Ki of 60.5 ± 10.8 nM.
